Results published in article PMC4370505 (PLoS ONE, 2015).

Tests used:
[1] = In vitro metabolism in rat liver microsomes with UDPA; type: in vitro ADME; conditions: for Metabolism in microsomal incubations: rat liver microsomes with UGT reaction mixture, over 60 minutes
Method: Incubations of test substances in reaction mixtures without microsomes were used as a control. All samples were protected against light during the experiments.

[2] = Single dose intravenous pharmacokinetic study in Wistar rats; type: in vivo; conditions: for Detectability of conjugate in plasma: 2 mg/kg
Method: Pharmacokinetic studies were conducted with male Wistar rats. Rats were acclimatized and housed at 22°C under 12h light/dark cycle with free access to sterilized commercial food pellets and water in the animal research facility (Curtin University) for at least 3 days prior to experiments. All animal experiments were approved by the Animal Ethics Committee of Curtin University (Approval no: R37–10 Amendment Approval No: A47–10 and A56–10) and were performed according to the Australian Code of Practice for the care and use of animals for scientific purposes. In order to minimize pain and suffering, the dosing and bleeding procedures were conducted under anesthesia (isoflurane at 5% for the induction and 2% for the maintenance, in combination with 1.5% oxygen). At the end of the study, rats were scarified by anesthetic euthanasia using 5% isofluorane with 1.5% oxygen. […] Blood (300 μL) was collected from the tail vein at 0.08, 0.5, 1, 2 and 4 hours into EDTA coated tubes. The blood samples were immediately stored in ice and protected from light until centrifuged (12000 × g at 4°C for 10 min). […] Metabolites were identified using LC-MS/MS (Applied Biosystems, 4000 QTRAP, Toronto, Canada).
Data analysis and representation (mean ± SD) were performed with SigmaPlot version 12 (Systat Software, Inc., Chicago, IL). Pharmacokinetic analysis was performed using Kinetica Version 5.0 (Thermo Fisher Scientific, Inc., Waltham, MA). Non compartmental analysis of the plasma concentration-time data was used to estimate the area under the curve (AUC0-∞; log-linear trapezoidal method), elimination half-life (t½), apparent clearance (CL; Dose÷AUC0-∞), mean residence time (MRT) and volume of distribution (Vss; CL×MRT). Statistical analysis of pharmacokinetic parameters was performed using unpaired t-test with Graphpad Prism software (version 6.05). Pharmacokinetic parameters obtained for each group were analyzed against the resveratrol group and p values were reported.

[3] = Stability of resveratrol-polymer conjugates in rat plasma; type: in vitro ADME; conditions: 37°C; for Plasma t1/2: rat plasma in vitro; for Intact conjugate detected by HPLC at initial time point: rat plasma, initial time point of 0 h
Method: The MeO-PEGN-Succ-RSV, 2 kDa, 20 kDa and MeO-PEGO-Succ-RSV 2 kDa (MW quoted in the paper is the size of polymer only. Mw for RSV is 228 Da) at the 10 mg/mL were incubated in plasma at 37°C. […] Aliquots of plasma (0.1 mL) were withdrawn at regular intervals and mixed with acetonitrile (0.9 mL). The mixtures were centrifuged at 10,000 rpm for 5 minutes. The supernatant (0.25 mL) was diluted with water (0.25 mL) and analysed by HPLC [28]. All samples were protected against light during the experiments.

[4] = Stability of resveratrol-polymer conjugates in physiological relevant buffers; type: physicochemical; conditions: phosphate buffer 0.1M pH 7.4, 37°C
Method: Briefly, reversed phase chromatographic separation was employed for analysis with xxx column. The HPLC gradient system consisted of solvent A, buffer pH 7.0 with triethyl amine-formic acid (0.05 and 0.2% v/v in water) and solvent B, methanol. A 30 min linear gradient was programmed as follows: 0 min 5% B, 4 min 20% B, 7 min 20% B, 16 min 55% B, 18 min 55% B, 18.5 min 95% B, 23 min 95% B, 24 min 5% B. The flow rate was maintained at 1 mL/min and the injection volume was 50 μL. The HPLC analysis was performed at ambient temperature. Altech Apollo C18 150 X 4.6 mm, 5μ column was employed for seperation. This HPLC method was validated to precisely separate and quantify the trans-resveratrol in the analyte mixture. There was at least two min difference in retention times for the trans and cis isomers of resveratrol. The UV spectrum of the trans isomer is very different from the cis isomer, thus any change to the trans isomer could have been detected. Although quantification was performed using the fluorescence detector at an excitation wavelength of 320nm and emission at 400 nm, simultaneous UV chromatograms were also recorded for specificity and peak purity purposes.
A similar procedure was used to study the stability of MeO-PEG-PLAO-Succ-RSV in buffers; micelles were prepared as per section 2.8 and diluted 1:5 with buffer solutions and incubated at 37°C. […]

[5] = Behaviour of conjugates in aqueous solution (solubility / self-aggregation); type: physicochemical; conditions: up to 10 mg/mL
Method: A solution of 40 mg of MeO-PEG-PLAO-Succ-RSV conjugate in acetonitrile (2 mL) was prepared. The stock solution was diluted with water (4 mL). The acetonitrile was removed by bubbling inert nitrogen gas at room temperature in the dark. The final volume of micellar/nanoparticle dispersion was adjusted to the required volume with water. For pharmacokinetic studies, final concentration of conjugate in micelle dispersion was 10 mg/mL and for critical micellear concentration measurement, the dispersion was diluted accordingly to obtain a series concentration of conjugate in solution below and above the CMC. The micelles of MeO-PEGO-Succ-RSV were formed spontaneously after dispersing in water.

[6] = 2 mg/kg equivalent vs resveratrol 10 mg/kg, rats IV
[7] = rats, IV, 2 mg/kg resveratrol equivalent
[8] = rats, IV, 2 mg/kg resveratrol equivalents, mean ± SD

Question: With “α-methoxy poly(ethylene glycol)-co-polylactide succinyl ester resveratrol [MeO-PEG-PLAO-Succ-RSV 2 kDa]” as the substance, how does the “Metabolism in microsomal incubations” value [1] read?
Answer: did not result in any detectable level of metabolites

Question: What about the “Fold higher AUC compared to resveratrol” value [2, 6] of the same substance?
Answer: 9 fold

Question: And the “Fold lower Vss compared to resveratrol” value [2, 6]?
Answer: 24 fold

Question: What about the “Fold lower apparent CL compared to resveratrol” value [2, 6] of the same substance?
Answer: 34 fold

Question: What about the “Detectability of conjugate in plasma” value [2, 7] of the same substance?
Answer: lack of detectable conjugate after 2 hr

Question: And the “AUC0-∞” value [2, 8]?
Answer: 21 ± 17 µM·h

Question: And the CL [2, 8]?
Answer: 9.67 ± 4.33 mL/min/kg

Question: And the MRT [2, 8]?
Answer: 114 ± 24 min

Question: What about the Vss [2, 8] of the same substance?
Answer: 1.12 ± 0.60 L/kg

Question: What about the t½ [2, 8] of the same substance?
Answer: 102 ± 30 min

Question: And the “Plasma t1/2” value [3]?
Answer: 180 min

Question: For “α-methoxy poly(ethylene glycol)-co-polylactide succinyl ester resveratrol [MeO-PEG-PLAO-Succ-RSV 6.6 kDa]”, which “Level of metabolites in plasma” value ([2]; rats, IV, 2 mg/kg resveratrol equivalent, compared with MeO-PEG-PLAO-Succ-RSV 2 kDa) is on record?
Answer: higher level of metabolites

Question: And the “Detectability of conjugate in plasma” value [2, 7]?
Answer: no quantifiable polymer conjugate detected

Question: And the “Plasma t1/2” value [3]?
Answer: 5 min

Question: Which “% Conjugate Remaining at 24 hr pH 7.4” value [4] does the source give for “α-methoxy-ω-carboxylic acid poly(ethylene glycol) succinylamide resveratrol [MeO-PEGN-Succ-RSV20 kDa]” here?
Answer: about 9%

Question: And the “Plasma t1/2” value [3]?
Answer: <5 min

Question: And the “Intact conjugate detected by HPLC at initial time point” value [3]?
Answer: almost no intact polymer conjugate was detected

Question: Which “Behaviour in aqueous solution” value [5] does the source give for “α-methoxy-ω-carboxylic acid poly(ethylene glycol) succinylamide resveratrol [MeO-PEGN-Succ-RSV 2 kDa]” here?
Answer: soluble and formed a clear solution

Question: What about the “Hydrolysis in control incubations without microsomes” value ([1]; incubation buffer without microsomes, 37°C) of the same substance?
Answer: significant degree of conjugate hydrolysis to free resveratrol

Question: What about the “Metabolism in microsomal incubations” value [1] of the same substance?
Answer: formation of moderate amount of glucuronide metabolites

Question: What about the “Plasma t1/2” value [3] of the same substance?
Answer: <5 min

Question: What about the “Intact conjugate detected by HPLC at initial time point” value [3] of the same substance?
Answer: almost no intact polymer conjugate was detected
